These results are taken from ChEMBL document CHEMBL5331049, “Structure-based discovery of 1-(3-fluoro-5-(5-(3-(methylsulfonyl)phenyl)-1H-pyrazolo[3,4-b]pyridin-3-yl)phenyl)-3-(pyrimidin-5-yl)urea as a potent and selective nanomolar type-II PLK4 inhibitor” (Eur J Med Chem, 2022).

The series in a line: Half life in human liver microsomes at 100 uM by LC-MS/MS analysis. In kind it is ADME, Microsome.

`O=C(O)Cc1ccccc1Nc1c(Cl)cccc1Cl` [DICLOFENAC] returned a half-life at 100 µM of 5.9 min.
